This passage reports MICDrug in combo results from patent US20210261621A1, “Preparation of Dilipid Polymixins and Use Thereof as Antimicrobial Adjuvants” (priority 2018, published 2021).

This test concerns P. aeruginosa PAO1. More on the design: unit not given beside the values. The conditions noted are these: antibiotic in combination with 1. Here is the method:
The potential of the dilipid polymyxins to serve as an adjuvant in combination with other antibiotics was evaluated against P. aeruginosa PAO1 strain (Tables 4 and 7-12). […] Checkerboard assays were performed with the dilipid polymyxins in combination with twenty-one clinically-used antibiotics. The panel included representatives from the β-lactam, carbapenem, tetracycline, aminoglycoside and fluoroquinolone antibiotic families. Other agents that are used to treat Gram-negative bacterial infection such as fosfomycin, trimethoprim and chloramphenicol were also included. […] Fractional inhibitory concentration (FIC) index was calculated for each combination to measure potential synergism between the two agents. FIC was obtained by dividing the MIC of antibiotic/adjuvant in combination by the MIC of antibiotic/adjuvant alone, while FIC index was calculated by the summation of FIC indices for the antibiotic and adjuvant. […] Initially, we assessed the adjuvant properties of PMBN against the panel of 21 antibiotics.
The assay was performed on 96-well plates as previously described. […] The fractional inhibitory concentration (FIC) of the antibiotic was calculated via dividing the MIC of antibiotic in the presence of adjuvant by the MIC of antibiotic alone. Similarly, the FIC of adjuvant was calculated via dividing the MIC of adjuvant in the presence of antibiotic by the MIC of adjuvant alone. […]

For the molecule `CO[C@H]1/C=C/O[C@@]2(C)Oc3c(C)c(O)c4c(O)c(c(/C=N/N5CCN(C)CC5)c(O)c4c3C2=O)NC(=O)/C(C)=C\C=C\[C@H](C)[C@H](O)[C@@H](C)[C@@H](O)[C@@H](C)[C@H](OC(C)=O)[C@@H]1C` [Rifampicin, reference compound], the MICDrug in combo result is listed as “(0.125)”.
